High-throughput results from PubChem.
Shown are actives, neighbours in structure and some others; about 2.3% of the full set was active somewhere.
Yeast UUG start: alters start codon recognition fidelity in yeast. S. cerevisiae UUG-firefly luciferase reporter, luminescence/redox ratio. AID 602363. activity score, % at 18.7 µM. hit rate 0.13% among 350,000;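 active = replicate mean at a twofold rise or more, about +100% in these data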;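 note: firefly luciferase made from a UUG start codon reports start codon fidelity; reporter light over untreated wells divided by growth signal over untreated wells; some hits fall short of that in this replicate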
MC4R antagonist: antagonists of human melanocortin 4 receptor (MC4R); P32245; MC4R-expressing cells, MTII-stimulated cAMP, LANCE TR-FRET; inhibition, % at 6.5 µM; 0.48% of 360,000 active;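 active means inhibition above its plate's cutoff, the mean of tested wells on that plate plus 3 SD, cut at about 29% in these data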;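 further: 0% = Melanotan II alone and 100% = Melanotan II plus saturating MCL0020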
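Assay system: U2OS cells stably expressing human melanocortin 4 receptor (MC4R) / Dosing: 6.5 µM / Timing: compound 30 min, challenge 1 h, detection 1 h / Measured by: Eu-cAMP/anti-cAMP TR-FRET, emission 671 nm / Replicates: singlicate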
CendR NRP1 mod: alters CendR peptide binding to human NRP-1; AID 602438; 0.85% of 360,000 active; inhibition, % at 25 µM; FAM-RPARPAR peptide binding to NRP-1, fluorescence polarization;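 active means inhibition or corrected inhibition above about 18%, plus a signal ratio from 0.5 to 1.5, limit read from the data, passing the limit was not always enough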
MC4R barr agon: human MC4R agonism via beta-arrestin | 0.98% of 360,000 active | U2OS MC4R beta-arrestin complementation, luminescence; percent of melanotan II response, DMSO zero | AID 540308 | P32245 | activation, % at 8.9 µM;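 active means activation above a per-plate cutoff, the mean activation of sample wells on that plate plus 3 SD, cut at about 8% in these data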
ASAP1 inh: blocks human ASAP1-stimulated Arf1 GTP hydrolysis; Q9ULH1; GDP FP detection; inhibition, % at 16.5 µM; 0.19% of 360,000 active; in the data active means inhibition above about 25%;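 further: 0% = vehicle with enzyme and substrate and 100% = no enzyme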
ARFGAP1 inh: rat ARFGAP1 inhibition | Q62848 | Arfgap1-stimulated ARF1 GTP hydrolysis, GDP FP detection | inhibition, % at 16.5 µM | 0.26% of 360,000 active;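 active means inhibition above a per-plate limit, mean inhibition of low control wells plus 3 SD, cut at about 25% in these data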;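 further: 0% = DMSO wells with enzyme and 100% = wells lacking Arfgap1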
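Assay system: Rat Arfgap1 GAP domain (His6, aa 1-136), purified enzyme | Buffer or medium: HEPES 25 mM pH 7.5, NaCl 150 mM, MgCl2, DTT | Schedule: GTP hydrolysis reaction 2 h at 25 °C | Signal: FP of antibody-bound GDP Alexa 633 tracer, ex 620/em 688 nm | Measure: Percent inhibition of Arfgap1-stimulated GTP hydrolysis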
* = called active by the depositor; . = not tested or not shown.

1: COCC(=O)Nc1ccc2c(c1)C(=O)N(C)C[C@H](OC)[C@@H](C)CN(CCC(F)(F)F)[C@H](C)CO2
2: COC(=O)/C=C1\C(=O)N(c2nc3ccccc3s2)C(=S)N1c1ccc(F)cc1
3: CCOc1ccc(NS(=O)(=O)c2cc(Cl)ccc2OC)cc1
4: C=CC[C@@H](CC(=O)N[C@@H](CO)Cc1ccccc1)C(=O)N[C@@H](COC(=O)[C@H](CC=C)CC(=O)OC(C)(C)C)Cc1c[nH]c2ccccc12
5: C=CC[C@@H](CC(=O)N[C@H](CO)Cc1ccccc1)C(=O)N[C@@H](COC(=O)[C@@H](CC=C)CC(=O)OC(C)(C)C)Cc1c[nH]c2ccccc12
6: C=CC[C@@H](CC(=O)N[C@H](CO)Cc1ccccc1)C(=O)N[C@H](COC(=O)[C@@H](CC=C)CC(=O)OC(C)(C)C)Cc1c[nH]c2ccccc12
7: C=CC[C@H](CC(=O)N[C@H](CO)Cc1ccccc1)C(=O)N[C@H](COC(=O)[C@@H](CC=C)CC(=O)OC(C)(C)C)Cc1c[nH]c2ccccc12
8: Cn1c(CCN2CCCC2)nc2cc(NC(=O)COc3ccc(Cl)cc3)ccc21

| assay / compound | 1 | 2 | 3 | 4 | 5 | 6 | 7 | 8 |
| --- | --- | --- | --- | --- | --- | --- | --- | --- |
| Yeast UUG start | 20 | -26 | -13 | 1 | -3 | -8 | -7 | -8 |
| MC4R antagonist | . | -1 | -6 | 15 | 12 | 3 | 11 | 2 |
| CendR NRP1 mod | . | 27* | 22* | -5 | 11 | 27* | -15 | 19* |
| MC4R barr agon | . | 4 | 0 | 5 | 5 | 2 | 8.3* | 2 |
| ASAP1 inh | . | -2 | 6 | 6 | 8 | 4 | 8 | 6 |
| ARFGAP1 inh | . | -10 | 5 | -2 | 4 | 6 | 7 | 1 |

9: COc1ccc(Oc2ccc3c(C(F)(F)F)cc(C(F)(F)F)nc3n2)cc1
10: Oc1ccc(Oc2ccc3c(C(F)(F)F)cc(C(F)(F)F)nc3n2)cc1
11: CO[C@H]1CN(C)C(=O)c2ccc(NC(=O)c3cc(C)on3)cc2OC[C@@H](C)N(CC2CC2)C[C@@H]1C
12: O=C(Nc1cccc(Cl)c1)NC1CC2CCC(C1)N2Cc1ccco1 (centres undefined)
13: CCc1ccccc1NC(=O)NC1CC2CCC(C1)N2Cc1ccco1 (centres undefined)
14: C[C@@H]1CCCCO[C@@H](CN(C)C)[C@H](C)CN([C@@H](C)CO)C(=O)c2cc(NC(=O)CCC(F)(F)F)ccc2O1
15: Cc1ccc(-n2nnnc2CNC(=O)C2CC(=O)N(c3ccccc3)C2)cc1C (centres undefined)
16: CN1C(=O)c2cc(NC(=O)c3cccs3)ccc2OC[C@H]2O[C@@H](CC(=O)N3CCOCC3)CC[C@H]21

| assay / compound | 9 | 10 | 11 | 12 | 13 | 14 | 15 | 16 |
| --- | --- | --- | --- | --- | --- | --- | --- | --- |
| Yeast UUG start | -2 | -11 | -17 | . | . | 2 | -1 | 2 |
| MC4R antagonist | -9 | 14 | . | 5 | -4 | . | -6 | . |
| CendR NRP1 mod | 12 | 9 | . | -2 | 20* | . | 28* | . |
| MC4R barr agon | 4 | 15* | . | -5 | 0 | . | -2 | . |
| ASAP1 inh | 1 | -5 | . | 19 | -1 | . | -2 | . |
| ARFGAP1 inh | -13 | -8 | . | 3 | -1 | . | -4 | . |

17: O=C(O)c1ccccc1NS(=O)(=O)c1ccc(NNC(=S)Nc2ccc(OC(F)F)cc2)c([N+](=O)[O-])c1
18: CCOc1ccc(NC(=O)NNC(=O)c2ccc3ccccc3c2O)cc1
19: CC(=O)Nc1cc(F)c2c(c1F)Cc1cc(F)ccc1-2
20: CCCC#Cc1ccc2c(c1)O[C@H](CN(C)C(=O)COC)[C@@H](C)CN([C@H](C)CO)S2(=O)=O
21: O=C(Nc1nccs1)c1sc2cc(Cl)ccc2c1Cl
22: O=C(Nc1nccs1)c1sc2ccccc2c1Cl
23: COc1ccc(S(=O)(=O)Nc2ccc3c(c2)CC(=O)N([C@@H](C)CO)C[C@@H](C)[C@H](CN(C)C(=O)NC2CCCCC2)O3)cc1
24: c1ccc(Cc2nnc3n2CCCCC3)cc1

| assay / compound | 17 | 18 | 19 | 20 | 21 | 22 | 23 | 24 |
| --- | --- | --- | --- | --- | --- | --- | --- | --- |
| Yeast UUG start | . | 0 | -13 | 1 | -7 | -17 | -5 | -14 |
| MC4R antagonist | 8 | 0 | -3 | . | 1 | -4 | . | -2 |
| CendR NRP1 mod | 26* | 26* | 24* | . | -3 | -11 | . | 14 |
| MC4R barr agon | -4 | -3 | -2 | . | 10* | 1 | . | -1 |
| ASAP1 inh | -16 | -7 | 1 | . | 14 | -7 | . | -3 |
| ARFGAP1 inh | -5 | -4 | -10 | . | 5 | 3 | . | -2 |

25: c1ccc2c(c1)CCCN2Cc1nnc2n1CCCCC2
26: FC(F)(F)c1nc(-c2ccncc2)ncc1-c1nnnn1-c1ccccc1
27: Cc1ccc(-n2nnnc2-c2cnc(-c3cccnc3)nc2C(F)(F)F)cc1
28: Cc1ccc(NC(=S)Nc2cc(-c3ccccc3)[nH]n2)cc1Cl
29: Cc1ccc(SCc2ccc(C(=O)Nc3cc([N+](=O)[O-])ccc3C)cc2)cc1
30: O=C(Nc1cccc(Br)c1)c1ccc(CSc2ccccc2)cc1
31: Cc1ccc(SCc2ccc(C(=O)Nc3cccc([N+](=O)[O-])c3)cc2)cc1
32: Cc1noc(C)c1NC(=O)Nc1ccc2c(c1)C(=O)N([C@H](C)CO)C[C@H](C)[C@@H](CN(C)C(=O)Nc1ccc(C(F)(F)F)cc1)OCCCC[C@@H](C)O2

| assay / compound | 25 | 26 | 27 | 28 | 29 | 30 | 31 | 32 |
| --- | --- | --- | --- | --- | --- | --- | --- | --- |
| Yeast UUG start | . | . | -5 | -26 | -11 | -14 | -7 | -1 |
| MC4R antagonist | 9 | 14 | -1 | 11 | 4 | 0 | 3 | . |
| CendR NRP1 mod | 23* | 4 | 20* | 2 | 13 | 40* | -6 | . |
| MC4R barr agon | 1 | -1 | 1 | 8.9* | 23* | 3 | 27* | . |
| ASAP1 inh | 14 | 8 | 6 | 7 | 7 | 8 | 1 | . |
| ARFGAP1 inh | 3 | -18 | 7 | 2 | 1 | 2 | 13 | . |

Values run as follows: Yeast UUG start, MC4R antagonist, CendR NRP1 mod, MC4R barr agon, ASAP1 inh, ARFGAP1 inh
(33) CN(C)C(=O)c1ccc(-c2ccc([C@@H]3[C@@H](CO)N4CCCCN(C(=O)C5CC5)C[C@H]34)cc2)cc1
    -8, ., ., ., ., .
(34) COc1ccc(NC(=O)Nc2cccc3c2O[C@@H](CN(C)CC2CC2)[C@H](C)CN([C@H](C)CO)C3=O)cc1
    8, ., ., ., ., .
(35) O=C1CN(S(=O)(=O)c2cc(Cl)ccc2Cl)c2ccccc2N1
    -10, 3, 22*, -1, -3, 7
(36) O=C(COc1ccccc1)Nc1ccc(-c2ccc(N3CCOCC3)nn2)cc1
    2, 0, 22*, 0, 4, 4
(37) C[C@H]1CN([C@@H](C)CO)C(=O)c2cc(-c3cncnc3)cnc2O[C@H]1CN(C)C(=O)c1cccc(F)c1
    11, ., ., ., ., .
(38) Cc1ccc(Cl)cc1NC(=O)c1cc2ccccc2cc1O
    12, 26, 2, 8.4*, -8, -18
(39) COc1cc(NC(=O)c2cc3ccccc3cc2O)c(OC)cc1Cl
    -18, 19, 4, 5, 7, 10
(40) O=C1C(NS(=O)(=O)c2cccs2)=C(N2CCN(c3cccc(Cl)c3)CC2)C(=O)c2ccccc21
    -17, 0, 40*, -3, 4, 6
(41) O=C(CCN1CCCCC1)N[C@H]1CC[C@H](CCn2cc(-c3ccccc3)nn2)O[C@@H]1CO
    14, ., ., ., ., .
(42) Cc1ccc2c(c1)NC(=O)CC(c1ccccc1)=N2
    -1, 3, 12, -2, 5, -2
(43) Cc1cc2c(cc1C)NC(=O)CC(C(F)(F)C(F)(F)C(F)(F)F)=N2
    -6, 8, -8, 8.7*, -3, -1

As entered above.
Reading of COc1cc(NC(=O)c2cc3ccccc3cc2O)c(OC)cc1Cl under MC4R barr agon: 5
Reading of Cc1cc2c(cc1C)NC(=O)CC(C(F)(F)C(F)(F)C(F)(F)F)=N2 under Yeast UUG start: -6
Reading of c1ccc2c(c1)CCCN2Cc1nnc2n1CCCCC2 under ASAP1 inh: 14
Reading of COc1ccc(S(=O)(=O)Nc2ccc3c(c2)CC(=O)N([C@@H](C)CO)C[C@@H](C)[C@H](CN(C)C(=O)NC2CCCCC2)O3)cc1 under Yeast UUG start: -5

Gathered by group, the compounds so far with a furan ring, fused or not (2)
Values run as follows: Yeast UUG start, MC4R antagonist, CendR NRP1 mod, MC4R barr agon, ASAP1 inh, ARFGAP1 inh
(12) O=C(Nc1cccc(Cl)c1)NC1CC2CCC(C1)N2Cc1ccco1 (centres undefined)
    ., 5, -2, -5, 19, 3
(13) CCc1ccccc1NC(=O)NC1CC2CCC(C1)N2Cc1ccco1 (centres undefined)
    ., -4, 20*, 0, -1, -1
